The list shows a part of the results, in another mix than the full data. Active and inactive are the calls of the source. The call rests on the fitted dose curve; in most records, active means well fitted activation curve with a large enough effect; inconclusive means small, poorly fitted or top-dose-only effect; inactive means flat fitted curve, though single readings scatter; cell line not stated here.

A short description of this assay: A Quantitative High throughput Screen to Identify Chemical Modulators of PINK1 Expression. Further: % of control where 0% means no effect; nearly all actives have a fitted effect of over 65% in size. The settings on record: PINK1 immunofluorescence, high-content cytometry, 24 h; at 76.6 µM (top of the series) unless noted.
Regarding `CCOC(=O)C(CC)C1=NC(C)(C)Cc2ccccc21.O=[N+]([O-])c1cc([N+](=O)[O-])c(O)c([N+](=O)[O-])c1` (stereo not given), the activation (PINK1 increase) is inactive: 1.11%.
The value for `CN(C)C1(CNC(=O)c2cccc(C#N)c2)CCCCC1` was inactive: 4.59%.
For the molecule `O=C(NCC1(N2CCOCC2)CCCCC1)c1ccccc1`, the activation (PINK1 increase) is inactive: 0.638%.
The same measure for `Cc1cc(N(CCCl)CCCl)ccc1C=O`: inactive: -5.04%.
The value for `O=c1[nH]c2ccccc2n1C1CCN(C(c2ccccc2)c2nnnn2C2CCCC2)CC1` (stereo not given) was inactive: -0.425%; that for `CCCN1CCC(Nc2cc(OC)cc(OC)c2)CC1` was inactive: 2.15%.
The same measure for `c1ccc(CN2CCC(Nc3ccccc3)CC2)cc1`: inactive: -0.91%; for `CC(C)(C)n1nnnc1C(c1cccc2ccccc12)N1CCC(n2c(=O)[nH]c3ccccc32)CC1` (stereo not given): inactive: 0.371%; for `CCC(c1nnnn1C1CCCCC1)N1CCC(n2c(=O)[nH]c3ccccc32)CC1` (stereo not given): inactive: 2.86%.
As to `CN(C)C1(CNC(=O)c2ccc(C(C)(C)C)cc2)CCCCC1`, the activation (PINK1 increase) is inactive: 0.763%.
For `COc1cccc(C(c2nnnn2C2CCCCC2)N2CCC(n3c(=O)[nH]c4ccccc43)CC2)c1OC` (stereo not given), the activation (PINK1 increase) was inactive: 3.72%.
The same measure for `CC(=O)N(c1ccccc1)C1CCNCC1`: inactive: 0.745%; for `COc1cc(OC)cc(C(=O)NCC2(N3CCCCC3)CCCCC2)c1`: inactive: 0.245%; for `O=c1[nH]c2ccccc2n1C1CCN(C(c2ccnc3ccccc23)c2nnnn2C2CCCCC2)CC1` (stereo not given): inactive: 0.609%.
The same measure for `Cc1ccc(C(=O)NCC2(N3CCCCC3)CCCCC2)o1`: inactive: 1.29%.
The same measure for `Cc1ccc(NC2(C#N)CCN(Cc3ccccc3)CC2)cc1`: inactive: -1%.
In the case of `CCN1CCC(Nc2cccc(F)c2)CC1`, the activation (PINK1 increase) is inactive: -0.0038%.
Consider `COc1ccc(C(c2nnnn2C2CCCCC2)N2CCC(n3c(=O)[nH]c4ccccc43)CC2)cc1` (stereo not given), for which the activation (PINK1 increase) was inactive: 0.941%.
For `CC(C)(C)n1nnnc1C(c1ccnc2ccccc12)N1CCC(n2c(=O)[nH]c3ccccc32)CC1` (stereo not given), the activation (PINK1 increase) was inactive: -0.27%.
The same measure for `Cc1ccccc1NC1(C#N)CCN(Cc2ccccc2)CC1`: inactive: 5.48%.
The same measure for `Cc1ccccc1C(=O)NCC1(N(C)C)CCCCC1`: inactive: 1.2%.
On to `CN(C)c1ccc(C(=O)NCC2(N3CCCCC3)CCCCC2)cc1`, for which the activation (PINK1 increase) is inactive: 2.45%.
The same measure for `Cn1c(=O)[nH]cc(N(CCCl)CCCl)c1=O`: inactive: -0.702%; for `O=C(NCC1(N2CCCCC2)CCCCC1)c1ccco1`: inactive: 0.5%.
As to `CC(C)(C)c1ccc(C(=O)NCC2(N3CCOCC3)CCCCC2)cc1`, the activation (PINK1 increase) is inactive: 1.03%.
The value for `CN1CCC(Nc2ccc(F)c(Cl)c2)CC1` was inactive: -1.63%.
Consider `CCOc1ncccc1C(=O)NCC1(N2CCOCC2)CCCCC1`, for which the activation (PINK1 increase) was inactive: 0.163%.
The same measure for `O=C(O)C1(Nc2ccccc2)CCN(Cc2ccccc2)CC1`: inactive: -0.991%; for `NN(c1ccccc1)C1CCN(CCc2ccccc2)CC1`: inactive: 2.58%; for `ClCCN(CCCl)c1ccc(C=C2C=CC=C2)cc1`: inactive: -0.84%.
Consider `CC(C)(C)OC(=O)N1CCC(Nc2ccccc2)CC1`, for which the activation (PINK1 increase) is inactive: 3.59%.
The value for `O=c1[nH]c2ccccc2n1C1CCN(C(c2cc3ccccc3o2)c2nnnn2C2CCCC2)CC1` (stereo not given) was inactive: -0.848%; that for `CCCOc1ccc(C(=O)NCC2(N(C)C)CCCCC2)cc1` was inactive: -2%; that for `ClCCN(CCCl)c1ccccc1` was inactive: -0.291%.
For `COc1cc(OC)cc(C(=O)NCC2(N3CCOCC3)CCCCC2)c1`, the activation (PINK1 increase) was inactive: -0.522%.
The same measure for `COc1cccc(C(c2nnnn2C2CCCC2)N2CCC(n3c(=O)[nH]c4ccccc43)CC2)c1OC` (stereo not given): inactive: -0.107%; for `COc1cc(C(=O)NCC2(N3CCOCC3)CCCCC2)cc(OC)c1OC`: inactive: 0.707%; for `COc1cccc(C(=O)N(c2cc(C)cc(C)c2)C2CCN(C(=O)OC(C)(C)C)CC2)c1`: inactive: 5.97%.
For `CCC(CO)(C(=O)OC1CN2CCC1CC2)c1ccccc1` (stereo not given), the activation (PINK1 increase) was inactive: -0.37%.
For `CN1CCC(Nc2ccc(Cl)cc2)CC1`, the activation (PINK1 increase) was inactive: -0.429%.

(Values after PubChem BioAssay AID624263 (National Center for Advancing Translational Sciences (NCATS), 2012).)
